Columns and labels:
chymotrypsin = chymotrypsin (Bos taurus, UniProt P00766); test: in vitro; details: isolated enzyme chymotrypsin, pH 7.8, Remaining peak area (%)/chymotrypsin
Method: FIG. 18. […] At different time point, 25 μL aliquots was taken out, and 10% (v/v) TFA was added to terminate the reaction.
(§1) Mix by centrifugation at 8000 rpm for 30 seconds.
(§2) Arrange a certain volume of 0.05 μg/μL chymotrypsin solution in another sterile EP. Incubate the EP tubes containing peptides and enzymes at 37° C. for 5 min, and add 3 μL of […] solution to each EP tube containing peptides and mix well. Start timing and extract 25 μL of reaction solution at 1.5, 3.0, 4.5, 6.0 and 9.0 min later, respectively. Add 3.75 μL of 10% TFA to terminate the reaction and mix well by centrifugation at 8000 rpm for 30 seconds.
(§3) Arrange a certain volume of 0.05 μg/μL chymotrypsin solution in another sterile EP. Incubate the EP tubes containing peptides and enzymes at 37° C. for 5 min, and then add 4.5 μL of chymotrypsin solution to each EP tube containing peptides and mix well. Start timing and extract 25 μL of reaction solution at 1.5, 3.0, 4.5, 6.0, 9.0, 15.0, 30.0, and 60.0 min later, respectively. Add 3.75 μL of 10% TFA to terminate the reaction and mix well by centrifugation at 8000 rpm for 30 seconds.
(§4) Referring to the experimental method in Example 5, in vitro stability of salmon Calcitonin analogs with oral administration activity to the enzymatic hydrolysis by trypsin, chymotrypsin and elastase were performed.
(§5) Referring to the experimental method in Example 5, in vitro stability of IL-17A inhibitory peptides towards the enzymatic hydrolysis by trypsin, chymotrypsin and elastase were performed.

trypsin = target: T1, trypsin (Bos taurus, UniProt P00760); test: in vitro; details: isolated enzyme trypsin, pH 7.8
T1 sequence (P00760 24-246): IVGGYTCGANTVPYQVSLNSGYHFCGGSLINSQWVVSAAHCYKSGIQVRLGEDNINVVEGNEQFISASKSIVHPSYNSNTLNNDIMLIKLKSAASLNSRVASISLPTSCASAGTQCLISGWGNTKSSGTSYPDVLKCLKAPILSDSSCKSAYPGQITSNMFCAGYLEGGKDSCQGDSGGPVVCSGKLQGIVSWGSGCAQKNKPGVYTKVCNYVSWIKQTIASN
Method: FIG. 17. […] At different time point, 25 μL aliquots was taken out, and 10% (v/v) TFA was added to terminate the reaction.
as §1
as §2, with “0.05 μg/μL trypsin solution in” for “0.05 μg/μL chymotrypsin solution in”, “min, and separately add 6” for “min, and add 3”, “separately add 6 μL of” for “and add 3 μL of”
as §3, with “μg/μL trypsin” for “μg/μL chymotrypsin”, “and” for “and then”, “add 9” for “add 4.5”, “of trypsin” for “of chymotrypsin”
as §4, §5

NEP24.11 = NEP24.11 (Homo sapiens, UniProt P08473); test: Tolerance of GLP-1 and its analogues to NEP24.11 (RP-HPLC remaining peak area); assay type: in vitro ADME; details: peptide 30 μM, NEP24.11 1.0 ng/μL, 37° C.; for Remaining peak area (%)/NEP24.11: 0.0 h; for remaining at 0.5 h, 30 μM / remaining at 2 h, 30 μM / remaining at 4 h, 30 μM / remaining at 8 h, 30 μM: isolated NEP24.11 enzyme in buffer; for remaining at 0.5 h, 30 μM: pH 7.4, 0.5 h; for remaining at 2 h, 30 μM: pH 7.4, 2.0 h; for remaining at 4 h, 30 μM: pH 7.4, 4.0 h; for remaining at 8 h, 30 μM: pH 7.4, 8.0 h
Method: as §1
Arrange a certain volume of 0.04 μg/μL NEP24.11 enzyme solution in another sterile EP.

DPP-IV = DPP-IV (Homo sapiens, UniProt P27487); test: Tolerance of GLP-1 and its analogues to DPP-IV (RP-HPLC remaining peak area); assay type: in vitro ADME; details: peptide 25 μM, DPP-IV 0.5 ng/μL, 37° C.; for Remaining peak area (%)/DPP-IV: 0.0 h; for remaining at 0.5 h, 25 μM / remaining at 2 h, 25 μM / remaining at 4 h, 25 μM / remaining at 8 h, 25 μM / remaining at 12 h, 25 μM: isolated DPP-IV enzyme in buffer, pH 8
Method: as §1
(2) Arrange a certain volume of 0.005 μg/μL DPP-IV solution in another sterile EP.

remaining at 0.025 h, 60 μM (chymotrypsin) [%]	remaining at 0.05 h, 60 μM (chymotrypsin) [%]	remaining at 0.075 h, 60 μM (chymotrypsin) [%]	remaining at 0.1 h, 60 μM (chymotrypsin) [%]	remaining at 0.15 h, 60 μM (chymotrypsin) [%]	remaining at 0.025 h, 60 μM (trypsin) [%]	remaining at 0.05 h, 60 μM (trypsin) [%]	remaining at 0.075 h, 60 μM (trypsin) [%]	remaining at 0.1 h, 60 μM (trypsin) [%]	remaining at 0.15 h, 60 μM (trypsin) [%]	Structure (SMILES)	Remaining peak area (%)/NEP24.11 (NEP24.11) [%]	remaining at 0.5 h, 30 μM (NEP24.11) [%]	remaining at 2 h, 30 μM (NEP24.11) [%]	remaining at 4 h, 30 μM (NEP24.11) [%]	remaining at 8 h, 30 μM (NEP24.11) [%]	Remaining peak area (%)/DPP-IV (DPP-IV) [%]	remaining at 0.5 h, 25 μM (DPP-IV) [%]	remaining at 2 h, 25 μM (DPP-IV) [%]	remaining at 4 h, 25 μM (DPP-IV) [%]	remaining at 8 h, 25 μM (DPP-IV) [%]	other results
95.4 ± 4.3	84.6 ± 3.2	85.5 ± 2.8	95.1 ± 0.9	79.7 ± 5.2	82.4 ± 3.1	72.1 ± 1.8	60.2 ± 4.9	42.2 ± 5.3	31 ± 3.1	CC[C@H](C)[C@H](NC(=O)[C@H](Cc1ccccc1)NC(=O)[C@H](CCC(=O)O)NC(=O)[C@H](CCCCN)NC(=O)[C@H](C)NC(=O)[C@H](C)NC(=O)[C@H](CCC(N)=O)NC(=O)CNC(=O)[C@H](CCC(=O)O)NC(=O)[C@H](CC(C)C)NC(=O)[C@H](Cc1ccc(O)cc1)NC(=O)[C@H](CO)NC(=O)[C@H](CO)NC(=O)[C@@H](NC(=O)[C@H](CC(=O)O)NC(=O)[C@H](CO)NC(=O)[C@@H](NC(=O)[C@H](Cc1ccccc1)NC(=O)[C@@H](NC(=O)CNC(=O)[C@H](CCC(=O)O)NC(=O)[C@H](C)NC(=O)[C@H](Cc1c[nH]cn1)NC(=O)CNC(=O)CNC(=O)[C@H](CCCNC(=N)N)NC(=O)[C@H](CO)NC(=O)[C@H](Cc1ccccc1)NC(=O)[C@H](CCCNC(=N)N)NC(=O)[C@H](CCC(N)=O)NC(=O)CNC(=O)CNC(=O)[C@@H]1CSSC[C@H](NC(=O)CNC(=O)CN)C(=O)N2CCC[C@H]2C(=O)N[C@@H](CCCCN)C(=O)N[C@@H]([C@@H](C)CC)C(=O)N[C@@H](CC(C)C)C(=O)N[C@@H](CCC(N)=O)C(=O)N[C@@H](CCCNC(=N)N)C(=O)N1)[C@@H](C)O)[C@@H](C)O)C(C)C)C(=O)N[C@@H](C)C(=O)N[C@@H](Cc1c[nH]c2ccccc12)C(=O)N[C@@H](CC(C)C)C(=O)N[C@H](C(=O)N[C@@H](CCCCN)C(=O)NCC(=O)N[C@@H](CCCNC(=N)N)C(=O)NCC(=O)NCC(=O)N[C@@H](CCCCN)C(=O)O)C(C)C [NT-GLP-1]	100.0 ± 0.0	77.9 ± 7.5	58.3 ± 4.8	54.3 ± 3.7	48.8 ± 6.2	–	–	–	–	–	–
76.3 ± 2	62 ± 1.7	46.1 ± 0.9	31.9 ± 2.5	9 ± 0.8	1 ± 0.1	0	0	0	0	CC[C@H](C)[C@H](NC(=O)[C@H](Cc1ccccc1)NC(=O)[C@H](CCC(=O)O)NC(=O)[C@H](CCCCN)NC(=O)[C@H](C)NC(=O)[C@H](C)NC(=O)[C@H](CCC(N)=O)NC(=O)CNC(=O)[C@H](CCC(=O)O)NC(=O)[C@H](CC(C)C)NC(=O)[C@H](Cc1ccc(O)cc1)NC(=O)[C@H](CO)NC(=O)[C@H](CO)NC(=O)[C@@H](NC(=O)[C@H](CC(=O)O)NC(=O)[C@H](CO)NC(=O)[C@@H](NC(=O)[C@H](Cc1ccccc1)NC(=O)[C@@H](NC(=O)CNC(=O)[C@H](CCC(=O)O)NC(=O)[C@H](C)NC(=O)[C@H](Cc1c[nH]cn1)NC(=O)CNC(=O)CNC(=O)[C@@H](NC(=O)[C@@H]1CCCN1C(=O)[C@@H](NC(=O)CNC(=O)CNC(=O)[C@H](CCCNC(=N)N)NC(=O)[C@H](CO)NC(=O)[C@H](Cc1ccccc1)NC(=O)[C@H](CCCNC(=N)N)NC(=O)[C@H](CCC(N)=O)NC(=O)CNC(=O)CN)[C@@H](C)CC)[C@@H](C)CC)[C@@H](C)O)[C@@H](C)O)C(C)C)C(=O)N[C@@H](C)C(=O)N[C@@H](Cc1c[nH]c2ccccc12)C(=O)N[C@@H](CC(C)C)C(=O)N[C@H](C(=O)N[C@@H](CCCCN)C(=O)NCC(=O)N[C@@H](CCCNC(=N)N)C(=O)NCC(=O)NCC(=O)N[C@@H](CCCCN)C(=O)O)C(C)C [DN-GLP-1]	100.0 ± 0.0	86.6 ± 4.2	73.3 ± 2.1	69.3 ± 5.9	58.9 ± 4.9	100.0 ± 0.0	100 ± 4.2	98.6 ± 5.1	97.8 ± 2.7	97.8 ± 2.2	remaining at 12 h, 25 μM (DPP-IV): 98.1 ± 7.1%
85.2 ± 7	87.9 ± 3.9	87.3 ± 1.2	76 ± 6.7	68.6 ± 4.3	67.5 ± 8.5	70.1 ± 11.6	61.9 ± 12.3	58.5 ± 12.5	–	CC[C@H](C)[C@H](NC(=O)[C@H](Cc1ccccc1)NC(=O)[C@H](CCC(=O)O)NC(=O)[C@H](CCCCN)NC(=O)[C@H](C)NC(=O)[C@H](C)NC(=O)[C@H](CCC(N)=O)NC(=O)CNC(=O)[C@H](CCC(=O)O)NC(=O)[C@H](CC(C)C)NC(=O)[C@H](Cc1ccc(O)cc1)NC(=O)[C@H](CO)NC(=O)[C@H](CO)NC(=O)[C@@H](NC(=O)[C@H](CC(=O)O)NC(=O)[C@H](CO)NC(=O)[C@@H](NC(=O)[C@H](Cc1ccccc1)NC(=O)[C@@H](NC(=O)CNC(=O)[C@H](CCC(=O)O)NC(=O)[C@H](C)NC(=O)[C@H](Cc1c[nH]cn1)NC(=O)CNC(=O)CNC(=O)[C@@H](NC(=O)[C@@H]1CCCN1C(=O)[C@@H](NC(=O)CNC(=O)CNC(=O)[C@@H]1CSSC[C@H](NC(=O)CNC(=O)CN)C(=O)N2CCC[C@H]2C(=O)N[C@@H](CCCCN)C(=O)N[C@@H]([C@@H](C)CC)C(=O)N[C@@H](CC(C)C)C(=O)N[C@@H](CCC(N)=O)C(=O)N[C@@H](CCCNC(=N)N)C(=O)N1)[C@@H](C)CC)[C@@H](C)CC)[C@@H](C)O)[C@@H](C)O)C(C)C)C(=O)N[C@@H](C)C(=O)N[C@@H](Cc1c[nH]c2ccccc12)C(=O)N[C@@H](CC(C)C)C(=O)N[C@H](C(=O)N[C@@H](CCCCN)C(=O)NCC(=O)N[C@@H](CCCNC(=N)N)C(=O)NCC(=O)NCC(=O)N[C@@H](CCCCN)C(=O)O)C(C)C [DT-GLP-1]	100.0 ± 0.0	77.6 ± 1.7	76.7 ± 2.5	72.9 ± 1.7	66.4	100.0 ± 0.0	92.1 ± 5.4	97.2 ± 1.2	94.1 ± 2.2	90.3 ± 3.2	remaining at 12 h, 25 μM (DPP-IV): 92 ± 1.4%

Reference: patent US20230416329A1, “A PEPTIDE WITH DISULFIDE BONDS AND INHIBITORY ACTIVITY AGAINST SERINE PROTEASES, DERIVED HYBRID PEPTIDES THEREOF, AND USES THEREOF” (INSTITUTE OF MATERIA MEDICA , CHINESE ACADEMY OF MEDICAL …, priority 2020, published 2023)
